For the assay, the target named is recombinant human GST-SYK (Homo sapiens, UniProt P43405). The assay is described as follows: Homogeneous Time-Resolved Fluorescence (HTRF) assay for the recombinant human SYK enzyme. The note with it: read-out: rhSYK Activity (IC50), recombinant human GST-SYK 5 pM, ATP 25 μM, 10-dose titration. Here is the method: Homogeneous Time-Resolved Fluorescence (HTRF) Assay for the Recombinant Human SYK Enzyme:
A recombinant GST-hSYK fusion protein was used to measure potency of compounds to inhibit human SYK activity. The recombinant human GST-SYK (Carna Biosciences #08-176) (5 pM final concentration) was incubated with various concentrations of the inhibitor diluted in DMSO (0.1% final concentration) for 10 minutes at room temperature in 15 mM Tris-HCl (pH 7.5), 0.01% tween 20, 2 mM DTT in 384 well plate format. To initiate the reaction the biotinylated substrate peptide (250 nM final concentration) that contains the phosphorylation site for SYK was added with magnesium (5 mM final concentration) and ATP (25 μM final concentration). Final volume of the reaction was 10 μL. Phosphorylation of the peptide was allowed to proceed for 45′ at room temperature. To quench the reaction and detect the phosphorylated product, 2 nM of a Europium-atiti-phosphotyrosine antibody (Perkin Elmer #AD0161) and 70 nM SA-APC (Perkin-Elmer #CR130-100) were added together in 15 mM Tris pH 7.5, 40 mM EDTA, 0.01% tween 20. Final volume of the quenching solution was 10 μL. The resulting HTRF signal was measured after 30 minutes on a EnVision (Perkin-Elmer) reader using a time-resolved fluorescence protocol. IC50 was determined following 10-dose titration (10 μM to 0.508 nM) and four parameter logistic curve fitting using the Merck Assay Data Analyzer. The rhSYK activity (IC50) is expressed as +++ (100 nM or less), ++ (between 100 and 1000 nM), +(between 1 and 10 μM).

Results on 29 compounds are retold here after patent publication US8735417B2, “Aminopyrimidines as Syk inhibitors” (Merck Sharp & Dohme Corp., priority 2009, dated 2014).

By IC50 is commonly meant the point on the concentration scale where inhibition reaches its midpoint.

Like-named read-outs stand apart in the source and are kept apart here.

Regarding `FC(F)(F)c1ccnc(Nc2cccc(-c3cnc(NC[C@@H]4CCCO4)s3)c2)n1`, the concentration for half-maximal inhibition (IC50) is less than 0.1 µM.

`Cc1cc(Nc2nccc(C(F)(F)F)n2)cc(-c2cnc(NCCCC3C=NNC3=O)s2)c1` (centres unmarked): the half-maximal inhibitory concentration (IC50) (tested form: formate) was less than 0.1 µM.

Consider `OC[C@H](COCc1ccccc1)Nc1ncc(-c2cccc(Nc3nccc(C(F)(F)F)n3)c2)s1`, for which the IC50 lay within 0.1 to 1 µM.

On to `O=C1NCCN1c1ncc(-c2cccc(Nc3nccc(C(F)(F)F)n3)c2)s1`, for which the IC50 was less than 0.1 µM.

As to `O=C1CCCN1CCCNc1ncc(-c2cccc(Nc3nccc(C(F)(F)F)n3)c2)s1`, the IC50 was less than 0.1 µM.

For the compound `OCC1C(O)CCCN1c1ncc(-c2cccc(Nc3nccc(C(F)(F)F)n3)c2)s1` (centres unmarked), the IC50 was less than 0.1 µM.

For `Cc1cc(Nc2nccc(C(F)(F)F)n2)cc(-c2cnc(N3CCCC(c4nc(C)no4)C3)s2)c1` (centres unmarked), the IC50 (tested form: formate) lay in the range of 0.1 to 1 µM.

Regarding `FC(F)(F)c1ccnc(Nc2cccc(-c3cnc(N4CC=CC4)s3)c2)n1`, the IC50 is less than 0.1 µM.

For the compound `Cc1cc(Nc2nccc(C(F)(F)F)n2)cc(-c2cnc(NCCC3CCNCC3)s2)c1`, the IC50 (tested form: formate) is less than 0.1 µM.

For the compound `FC(F)(F)c1ccnc(Nc2cccc(-c3cnc(N4CCc5ccccc5C4)s3)c2)n1`, the IC50 (tested form: free base) is 0.1 to 1 µM.

As to `Cc1cc(Nc2nccc(C(F)(F)F)n2)cc(-c2cnc(NCc3ccc(CN4CCOCC4)cc3)s2)c1`, under “tested form: formate”, the IC50 was in the range of 1 to 10 µM.

In the case of `CN(C)C1(CNc2ncc(-c3cccc(Nc4nccc(C(F)(F)F)n4)c3)s2)CCSC1` (centres unmarked), the IC50 is less than 0.1 µM.

On to `Cc1cc(Nc2nccc(C(F)(F)F)n2)cc(-c2cnc(N3CCC4(C3)OCCO4)s2)c1`, for which the IC50 (tested form: formate) is less than 0.1 µM.

Consider `OCCC1CN(c2ncc(-c3cccc(Nc4nccc(C(F)(F)F)n4)c3)s2)CCO1` (centres unmarked), for which the IC50 was less than 0.1 µM.

As for `Cc1cc(Nc2nccc(C(F)(F)F)n2)cc(-c2cnc(N3CCCC(Cn4ccnc4)C3)s2)c1` (centres unmarked), the IC50 (tested form: formate) was less than 0.1 µM.

Regarding `CCN1CCC[C@H]1CNc1ncc(-c2cccc(Nc3nccc(C(F)(F)F)n3)c2)s1`, the IC50 lay within 0.1 to 1 µM.

Turning to `CCN1CCC[C@@H]1CNc1ncc(-c2cccc(Nc3nccc(C(F)(F)F)n3)c2)s1`, the IC50 is less than 0.1 µM.

For the compound `Cc1cc(Nc2nccc(OCC3CCOC3)n2)cc(-c2cnc(N3CCCNC(=O)C3)s2)c1` (centres unmarked), the 50% inhibitory concentration (IC50) (tested form: free base) is less than 0.1 µM.

As for `CC(C)(O)C1CCCN(c2ncc(-c3cccc(Nc4nccc(C(F)(F)F)n4)c3)s2)C1` (centres unmarked), the half-inhibitory concentration (IC50) is less than 0.1 µM.

On to `OC1CN(c2ncc(-c3cccc(Nc4nccc(C(F)(F)F)n4)c3)s2)CCC1c1ccccc1` (centres unmarked), for which the IC50 was 0.1 to 1 µM.

For `CN1CCN(c2ncc(-c3cccc(Nc4nccc(C(F)(F)F)n4)c3)s2)CCC1=O`, the IC50 is less than 0.1 µM.

For the compound `Cc1ncc(CN)c(Nc2ncc(-c3cccc(Nc4nccc(C(F)(F)F)n4)c3)s2)n1`, the IC50 is less than 0.1 µM.

As for `COC(=O)CCc1ccc(CNc2ncc(-c3cc(C)cc(Nc4nccc(C(F)(F)F)n4)c3)s2)cc1`, under “tested form: formate”, the half-maximal inhibitory concentration (IC50) fell in the range of 0.1 to 1 µM.

As for `Cc1cc(Nc2nccc(C(F)(F)F)n2)cc(-c2cnc(NCC3CCCN(C)C3)s2)c1` (centres unmarked), for the setting “tested form: formate”, the IC50 was less than 0.1 µM.

`Cc1cc(Nc2ncccn2)cc(-c2cnc(N3CCCNC(=O)C3)s2)c1`: the IC50 (tested form: free base) was less than 0.1 µM.

Regarding `O=C(O)CC1c2ccccc2CCN1c1ncc(-c2cccc(Nc3nccc(C(F)(F)F)n3)c2)s1` (centres unmarked), the IC50 was less than 0.1 µM.

As for `FC(F)(F)c1ccnc(Nc2cccc(-c3cnc(N4CCCC(C(F)(F)F)C4)s3)c2)n1` (centres unmarked), the IC50 fell in the range of 0.1 to 1 µM.

As to `OCC(Nc1ncc(-c2cccc(Nc3nccc(C(F)(F)F)n3)c2)s1)C1CCOCC1` (centres unmarked), the half-maximal inhibitory concentration (IC50) was less than 0.1 µM.

On to `Cc1cc(Nc2nccc(C(F)(F)F)n2)cc(-c2cnc(NCc3ncnn3C)s2)c1`, for which, for the setting “tested form: formate”, the IC50 was less than 0.1 µM.
